These results are taken from patent publication US12721905B2, “Combination of anti-HER2 antibody-drug conjugate and PARP1 selective inhibitor” (AstraZeneca UK Limited, priority 2020, dated 2026).

The experiment has as its system NCI-N87 xenograft. As to the kind of experiment: Antitumor test in vivo, NCI-N87 xenograft (Example 5). Set-up: species or system Female Nude mice. As to the method:
Female Nude mice (Charles River) aged 5-8 weeks were used, following 7 days acclimatisation before entry into the study. 1×10^7 NCI-N87 tumour cells (1:1 in Matrigel) were implanted subcutaneously onto the flank of the female Nude mice. When tumours reached approximately 150 mm^3, similar-sized tumours were randomly assigned to treatment groups as shown in Table 4:
The dose of compound for each animal was calculated based on the individual body weight on the day of dosing. DS-8201 and AZD5305 were dosed on the same day, with DS-8201 being administered approximately 1 hour post the PO dose of AZD5305. DS-8201 was administered as a single dose at 1 mg/kg or 3 mg/kg on day 1, and AZD5305 was administered at 1 mg/kg QD for 28 days. Duration of dosing was for 28 days.
The dosing solutions for DS-8201 were prepared on the day of dosing by diluting the DS-8201 stock (20.1 mg/ml) in 25 mM histidine buffer, 9% sucrose (pH5.5) to 0.6 mg/ml, and 0.2 mg/ml for the 3 mg/kg and 1 mg/kg dosing solutions, respectively. […]
Tumour growth inhibition (TGI) was calculated as follows: TGI %={1−(MTV treated/MTV control)}*100 where MTV=mean tumor volume.
Statistical significance was evaluated using one-tailed t-test of (log(relative tumour volume)=log(final vol/start vol)) at the day of final measure, comparing to vehicle control.

Consider trastuzumab deruxtecan [DS-8201], for which the “TGI % day 41” value is 25% (DS-8201 1 mg/kg IV single dose, 1 mg/kg) and 62% (DS-8201 3 mg/kg IV single dose, 3 mg/kg).
